For assay [1], the target named is HIV RT-associated RNase H (Human immunodeficiency virus type 1 group M subtype B, UniProt P04585). The format is biochemical, HIV-1.
A further assay concerns the target HIV RT polymerase (Human immunodeficiency virus type 1 group M subtype B, UniProt P04585). As to the kind of experiment: RT polymerase assay. Type of assay: biochemical, HIV-1.
The next assay has as its target HIV integrase (Human immunodeficiency virus type 1 group M subtype B, UniProt P04585). The assay can be described thus: HIV IN strand transfer assay. The format is biochemical.
Where [2] appears, read: RNH IC50 HTS-2, HTS-2 substrate, measures DNA 3' end directed cleavage.
The mark [3] stands for this setting: RNH IC50 HTS-3, HTS-3 substrate, measures RNA 5' end directed cleavage.

Each structure is given as a SMILES string. Where two headings read alike, the source gives them in different places.

What is called IC50 is the concentration at which inhibition is half-maximal. With `O=C(O)c1cn(Cc2ccc(Cl)cc2)cc(O)c1=O` [10h, 1-(4-Chlorobenzyl)-5-hydroxy-4-oxo-1,4-dihydropyridine-3-carboxylic acid], the IC50 in assay [1] (setting [2]) was greater than 25 µM; in assay [1] (setting [3]), greater than 25 µM; against HIV RT polymerase, greater than 25 µM; on HIV RT polymerase (read-out: RT Pol IC50, Table 4) it was greater than 25 µM.
Take `O=C(O)c1cn(Cc2cccc(C(F)(F)F)c2)cc(O)c1=O` [10m, 5-Hydroxy-4-oxo-1-(3-(trifluoromethyl)benzyl)-1,4-dihydropyridine-3-carboxylic acid]: the IC50 in assay [1] (setting [2]) was greater than 25 µM; in assay [1] (setting [3]) it was greater than 25 µM; at HIV RT polymerase, greater than 25 µM; on HIV RT polymerase (read-out: RT Pol IC50, Table 4), greater than 25 µM; against HIV integrase, greater than 100 µM.
In the case of `COc1ccc(Cn2cc(O)c(=O)c(C(=O)O)c2)cc1` [10q, 5-Hydroxy-1-(4-methoxybenzyl)-4-oxo-1,4-dihydropyridine-3-carboxylic acid], the IC50 against HIV RT polymerase is greater than 25 µM; at HIV RT polymerase (read-out: RT Pol IC50, Table 4), greater than 25 µM.
`O=C(O)c1cn(Cc2ccc(-c3cccnc3)cc2)cc(O)c1=O` [10z, 5-Hydroxy-4-oxo-1-(4-(pyridin-3-yl)benzyl)-1,4-dihydropyridine-3-carboxylic acid]: the IC50 on HIV RT polymerase was greater than 25 µM; at HIV RT polymerase (read-out: RT Pol IC50, Table 4), greater than 25 µM.

The record behind these values is PMC4882222 (Journal of medicinal chemistry, 2016).
